From ChEMBL document CHEMBL4376826, “Isolation, Structural Identification, Synthesis, and Pharmacological Profiling of 1,2-trans-Dihydro-1,2-diol Metabolites of the Utrophin Modulator Ezutromid” (J Med Chem, 2020)

Chains of the proteins cited; added tags and fusions are not shown.
UniProt P00185, whole entry: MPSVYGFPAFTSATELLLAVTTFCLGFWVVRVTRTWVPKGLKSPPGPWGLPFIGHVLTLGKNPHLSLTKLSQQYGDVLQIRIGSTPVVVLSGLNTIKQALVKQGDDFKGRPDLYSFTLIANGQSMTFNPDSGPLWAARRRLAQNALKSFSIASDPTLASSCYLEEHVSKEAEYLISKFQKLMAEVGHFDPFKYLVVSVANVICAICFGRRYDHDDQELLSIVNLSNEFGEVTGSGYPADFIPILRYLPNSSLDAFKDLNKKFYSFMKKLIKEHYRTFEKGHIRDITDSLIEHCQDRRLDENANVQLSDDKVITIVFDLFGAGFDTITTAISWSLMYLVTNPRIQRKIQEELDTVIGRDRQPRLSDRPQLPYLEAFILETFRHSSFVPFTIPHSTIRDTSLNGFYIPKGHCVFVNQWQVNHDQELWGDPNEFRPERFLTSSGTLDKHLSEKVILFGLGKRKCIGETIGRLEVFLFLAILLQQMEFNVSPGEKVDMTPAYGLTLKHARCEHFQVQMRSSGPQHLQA
UniProt P05177, whole entry: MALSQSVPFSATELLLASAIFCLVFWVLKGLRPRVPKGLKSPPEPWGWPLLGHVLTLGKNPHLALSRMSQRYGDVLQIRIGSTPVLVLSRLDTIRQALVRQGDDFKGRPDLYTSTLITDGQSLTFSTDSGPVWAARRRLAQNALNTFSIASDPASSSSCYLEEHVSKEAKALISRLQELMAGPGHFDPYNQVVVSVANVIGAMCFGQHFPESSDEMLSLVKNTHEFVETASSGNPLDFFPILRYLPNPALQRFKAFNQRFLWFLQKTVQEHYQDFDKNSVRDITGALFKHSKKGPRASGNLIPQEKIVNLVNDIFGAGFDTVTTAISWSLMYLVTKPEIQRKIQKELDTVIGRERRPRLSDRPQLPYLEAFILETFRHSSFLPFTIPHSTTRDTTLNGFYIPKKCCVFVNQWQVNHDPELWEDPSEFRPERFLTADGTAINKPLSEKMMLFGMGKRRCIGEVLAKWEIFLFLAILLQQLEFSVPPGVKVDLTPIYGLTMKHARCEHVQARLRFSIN

Experiments:
[1] = system: CYP2B; experiment: Induction of CYP2B enzymes in female minipig assessed as increase in PROD enzyme activity at 500 mg/kg/day, po for 39 weeks relative to control; type: ADME, organism-based, Sus scrofa domesticus; settings: pig, in vivo, read-out: FC
[2] = target: Cytochrome P450 1A1 (Rattus norvegicus, UniProt P00185); experiment: Induction of CYP1A1 in rat hepatocytes at 0.1 to 10 uM incubated for 48 hrs; type: ADME, cell-based
[3] = system: CYP1A1/2; experiment: Induction of CYP1A1/2 enzymes in female minipig assessed as increase in EROD enzyme activity at 500 mg/kg/day, po for 39 weeks relative to control; type: ADME, organism-based, Sus scrofa domesticus; settings: pig, in vivo, read-out: FC
[4] = system: CYP2B; experiment: Induction of CYP2B enzymes in minipig assessed as increase in PROD enzyme activity at 500 mg/kg/day, po for 39 weeks relative to control; type: ADME, organism-based, Sus scrofa domesticus; settings: pig, in vivo, read-out: FC
[5] = target: Cytochrome P450 1A2 (Homo sapiens, UniProt P05177); experiment: Induction of CYP1A2 in human hepatocytes at 0.1 to 10 uM incubated for 48 hrs; type: ADME, cell-based
[6] = system: CYP1A1/2; experiment: Induction of CYP1A1/2 enzymes in rat assessed as increase in EROD enzyme activity per milligram of protein at 2000 mg/kg/day, po for 28 days relative to control; type: ADME, organism-based; settings: in vivo, read-out: FC
[7] = system: CYP1A1/2; experiment: Induction of CYP1A1/2 enzymes in rat assessed as increase in EROD enzyme activity per gram of liver at 2000 mg/kg/day, po for 28 days relative to control; type: ADME, organism-based; settings: read-out: FC
[8] = system: CYP1A1/2; experiment: Induction of CYP1A1/2 enzymes in rat assessed as increase in EROD enzyme activity per nanomole of P450 at 2000 mg/kg/day, po for 28 days relative to control; type: ADME, organism-based; settings: in vivo, read-out: FC
[9] = target: T1, Cytochrome P450 1A2 (Rattus norvegicus, UniProt P04799); experiment: Induction of CYP1A2 in rat hepatocytes at 0.1 to 10 uM incubated for 48 hrs; type: ADME, cell-based
T1 sequence (P04799 whole entry): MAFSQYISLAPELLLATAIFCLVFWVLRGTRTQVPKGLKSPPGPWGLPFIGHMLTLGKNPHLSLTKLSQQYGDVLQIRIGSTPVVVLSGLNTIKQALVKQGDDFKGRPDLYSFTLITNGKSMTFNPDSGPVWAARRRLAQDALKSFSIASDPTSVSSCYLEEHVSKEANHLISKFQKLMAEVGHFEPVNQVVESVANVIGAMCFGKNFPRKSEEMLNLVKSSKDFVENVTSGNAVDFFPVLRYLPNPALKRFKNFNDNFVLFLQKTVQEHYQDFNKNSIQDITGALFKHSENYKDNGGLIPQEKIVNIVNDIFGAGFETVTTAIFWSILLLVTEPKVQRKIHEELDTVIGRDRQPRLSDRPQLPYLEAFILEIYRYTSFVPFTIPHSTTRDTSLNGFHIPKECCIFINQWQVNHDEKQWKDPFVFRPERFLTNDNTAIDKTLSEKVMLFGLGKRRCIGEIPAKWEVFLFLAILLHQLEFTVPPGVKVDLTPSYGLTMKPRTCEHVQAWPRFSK

Compound: CCS(=O)(=O)c1ccc2oc(-c3ccc4ccccc4c3)nc2c1 [EZUTROMID]
- fold induction at 6552 h [1]: 3.8
- Activity [2]: Not Active
- fold induction at 6552 h [3]: 4
- fold induction at 6552 h [4]: 2
- Activity [5]: Not Active
- fold induction at 672 h [6]: 17 to 18
- fold induction at 672 h [7]: 21 to 22
- fold induction at 672 h [8]: 13 to 18
- Activity [9]: Not Active
